# Values of other authors as cited in PMC7700664, “In Vitro and Ex Vivo Evaluation of Penetratin as a Non-invasive Permeation Enhancer in the Penetration of Salmon Calcitonin through TR146 Buccal Cells and Porcine Buccal Tissues” (Pharmaceuticals, 2020).
# Tested on: TR146 cell layers
# Conditions: cited from earlier work
# Description: TEER value represents the integrity and the function of tight junctions between cell layers. If a tight junction of cell layer loosen, membrane integrity also diminishes and penetration to the paracellular route increases. The maximum TEER value of the TR146 cell layer incubated for 30 days in the in vitro cell permeation study was 71.30 Ω·cm^2 [39, 40].
structure (smiles),measurement,value
CC[C@H](C)[C@H](NC(=O)[C@H](CCCCN)NC(=O)[C@@H](NC(=O)[C@H](CCC(N)=O)NC(=O)[C@@H](N)CCCNC(=N)N)[C@@H](C)CC)C(=O)N[C@@H](Cc1c[nH]c2ccccc12)C(=O)N[C@@H](Cc1ccccc1)C(=O)N[C@@H](CCC(N)=O)C(=O)N[C@@H](CC(N)=O)C(=O)N[C@@H](CCCNC(=N)N)C(=O)N[C@@H](CCCNC(=N)N)C(=O)N[C@@H](CCSC)C(=O)N[C@@H](CCCCN)C(=O)N[C@@H](Cc1c[nH]c2ccccc12)C(=O)N[C@@H](CCCCN)C(=O)N[C@@H](CCCCN)C(=O)O [Penetratin],change of TEER value on treatment with Penetratin,did not differ significantly
